# From publication PMC5458626 (American heart journal, 2017)
# Legend:
# [1] = Plasma pharmacokinetics of udenafil and DA-8164; conditions: for DA-8164 Cmax: plasma metabolite
# [2] = Adverse events; type: in vivo, human; conditions: 5 days, N=6
# [3] = Vascular function by peripheral arterial tonometry; type: in vivo, human; conditions: N=5
# [4] = metabolite, oral udenafil 87.5 mg bid for five days, mean (%CV), N=6
# [5] = metabolite, oral udenafil 87.5 mg daily for five days, mean (%CV), N=6
# [6] = oral udenafil 87.5 mg bid for five days, mean (%CV), N=6
# [7] = oral udenafil 87.5 mg daily for five days, mean (%CV), N=6
# [8] = twice-daily dosing, dose increased 2.3 times (37.5 to 87.5 mg)
compound,measurement,setting,value
CCCOc1ccc(S(N)(=O)=O)cc1-c1nc2c(CCC)nn(C)c2c(=O)[nH]1 [DA-8164],"DA-8164 T½ (harmonic mean half-life, 0.693/mean kel)","[1]; metabolite, oral udenafil 87.5 mg bid for five days, N=6",12.3 h
same,DA-8164 Cavg (AUC0−τ/τ),[1]; [4],201 (24) ng/mL
same,DA-8164 Tmax,[1]; [4],2.6 (36) h
same,DA-8164 kel,[1]; [4],0.0564 (17) h
same,DA-8164 AUC0−τ,"[1]; metabolite, oral udenafil 87.5 mg bid for five days, τ = 12 hours, mean (%CV), N=6",2410 (24) ng*h/mL
same,"DA-8164 T½ (harmonic mean half-life, 0.693/mean kel)","[1]; metabolite, oral udenafil 87.5 mg daily for five days, N=6",14.9 h
same,DA-8164 Cavg (AUC0−τ/τ),[1]; [5],121 (65) ng/mL
same,DA-8164 Tmax,[1]; [5],3.2 (30) h
same,DA-8164 kel,[1]; [5],0.0464 (16) h
same,DA-8164 Cmax,[1]; [6],293 (34) ng/mL
same,DA-8164 Cmax,[1]; [7],227 (66) ng/mL
CCCOc1ccc(S(=O)(=O)NCCC2CCCN2C)cc1-c1nc2c(CCC)nn(C)c2c(=O)[nH]1 (stereo not drawn) [udenafil],Cmax,"[1]; human, plasma, po, 87.5 mg, Udenafil Cmax, oral udenafil 87.5 mg bid for five days, mean (%CV), N=6",506 ng/mL
same,Udenafil CL/F (oral clearance),[1]; [6],27.2 (20) L/h
same,Udenafil Cavg (AUC0−τ/τ),[1]; [6],279 ng/mL
same,Udenafil CL/F (oral clearance),[1]; [7],41.1 (19) L/h
same,Fold increase of mean udenafil AUC0−τ with dose,[1]; [8],3.2 fold
same,Fold increase of mean udenafil Cmax with dose,[1]; [8],3.3 fold
same,Subjects who experienced drug-related (probably or possibly) adverse events: Headache,[2]; udenafil 87.5 mg daily,4 (67) n (%)
same,Subjects who experienced drug-related adverse events: Abdominal discomfort,[2]; udenafil 87.5 mg daily,0 (0) n (%)
same,Subjects who experienced drug-related adverse events: Back pain,[2]; udenafil 87.5 mg daily,0 (0) n (%)
same,Subjects who experienced drug-related adverse events: Flushing,[2]; udenafil 87.5 mg daily,4 (67) n (%)
same,Subjects who experienced drug-related adverse events: Nasal congestion,[2]; udenafil 87.5 mg daily,1 (17) n (%)
same,Subjects who experienced drug-related adverse events: Nausea,[2]; udenafil 87.5 mg daily,0 (0) n (%)
same,Subjects who experienced drug-related (probably or possibly) adverse events: Headache,[2]; udenafil 87.5 mg twice daily,4 (67) n (%)
same,Subjects who experienced drug-related adverse events: Abdominal discomfort,[2]; udenafil 87.5 mg twice daily,1 (17) n (%)
same,Subjects who experienced drug-related adverse events: Back pain,[2]; udenafil 87.5 mg twice daily,1 (17) n (%)
same,Subjects who experienced drug-related adverse events: Flushing,[2]; udenafil 87.5 mg twice daily,2 (33) n (%)
same,Subjects who experienced drug-related adverse events: Nasal congestion,[2]; udenafil 87.5 mg twice daily,1 (17) n (%)
same,Subjects who experienced drug-related adverse events: Nausea,[2]; udenafil 87.5 mg twice daily,1 (17) n (%)
same,"Augmentation Index adjusted to HR 75, follow-up measurement","[3]; day 5, udenafil 87.5 mg BID",−4.49±12.02
same,"Natural log of Reactive Hyperemic Index, follow-up measurement","[3]; day 5, udenafil 87.5 mg BID",0.40±0.29
same,"Augmentation Index adjusted to HR 75, follow-up measurement","[3]; day 5, udenafil 87.5 mg QD",−12.71±9.11
same,"Natural log of Reactive Hyperemic Index, difference FU – BL","[3]; day 5 minus baseline (positive = improvement), udenafil 87.5 mg QD",0.07±0.22
